In PubChem BioAssay (Tox21):
Where “and” joins values, the source holds several entries; their conditions need not be identical. Identical values can stand only once. This is a selection; strong and weak results do not stand in their true shares. Records with an inconclusive call do not appear. Calls of active or inactive are those of the source. Unless noted, calls follow the shape of the dose curve; as a rule, active = well fitted curve in the direction sought with a large enough effect in the repeat runs; inconclusive = weak or mixed curves; inactive = no such curve, though single readings can be large; an effect the other way counts as inactive or inconclusive.

Chains of the proteins cited; added tags and fusions are not shown.
UniProt P04150, whole entry: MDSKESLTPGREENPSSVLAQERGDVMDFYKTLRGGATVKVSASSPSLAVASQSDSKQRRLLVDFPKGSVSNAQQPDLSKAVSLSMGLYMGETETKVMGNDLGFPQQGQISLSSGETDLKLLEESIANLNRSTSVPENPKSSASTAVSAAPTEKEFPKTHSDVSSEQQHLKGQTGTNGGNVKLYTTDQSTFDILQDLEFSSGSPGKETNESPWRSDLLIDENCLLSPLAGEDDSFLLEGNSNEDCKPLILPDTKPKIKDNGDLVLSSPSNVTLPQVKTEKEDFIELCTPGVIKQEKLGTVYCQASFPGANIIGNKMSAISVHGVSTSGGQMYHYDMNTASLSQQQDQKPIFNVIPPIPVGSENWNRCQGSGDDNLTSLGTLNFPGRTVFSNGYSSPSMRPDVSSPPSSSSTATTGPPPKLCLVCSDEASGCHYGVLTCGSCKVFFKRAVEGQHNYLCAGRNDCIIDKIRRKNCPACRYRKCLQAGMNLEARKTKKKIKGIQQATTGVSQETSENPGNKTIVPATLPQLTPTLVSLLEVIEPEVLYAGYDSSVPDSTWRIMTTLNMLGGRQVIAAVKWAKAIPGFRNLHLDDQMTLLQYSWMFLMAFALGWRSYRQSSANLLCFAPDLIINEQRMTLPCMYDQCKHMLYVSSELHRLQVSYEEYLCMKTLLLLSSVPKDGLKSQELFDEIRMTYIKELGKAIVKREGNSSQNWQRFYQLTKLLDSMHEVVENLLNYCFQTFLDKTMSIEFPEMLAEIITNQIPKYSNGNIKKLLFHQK

Assays:
[1] = qHTS assay for small molecule agonists of the p53 signaling pathway (AID 651631; calls by dose curve; also: nearly all actives have a fitted effect of over 15% in size); conditions: HCT-116 p53RE-bla reporter, beta-lactamase FRET ratio, 16 h
Outline: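 Testing took place in human colorectal HCT-116 cells with stable p53RE-driven beta-lactamase. After 16 h of compound exposure at 37 °C, a FRET substrate was added and fluorescence recorded 2 h later.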

[2] = qHTS assay for small molecules that induce genotoxicity in human embryonic kidney cells expressing luciferase-tagged ATAD5 (AID 651632); conditions: HEK293T ATAD5-luciferase induction, 16 h; series mostly up to 83.3 µM; also: nearly all actives have a fitted effect of over 15% in size
Outline: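 HEK293T cells carrying a luciferase reporter tagged to ATAD5 were exposed to compound or DMSO vehicle for 16 hr at 37C, 5% CO2. Amplite was added, and after 30 min at room temperature luciferase activity was read as a marker of ATAD5 induction.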

[3] = qHTS assay for small molecule agonists of the p53 signaling pathway - cell viability (AID 651633; calls by dose curve; also: nearly all actives have a fitted effect of over 30% in size); conditions: p53RE-bla HCT-116 viability, ATP luminescence, 16 h
Outline: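 Viability counter-read: CellTiter-Glo luminescence (30 min, room temperature) in the same p53RE-bla plates. These plates had been exposed to compounds for 16 h at 37 C.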

[4] = qHTS assay for small molecules that induce genotoxicity in human embryonic kidney cells expressing luciferase-tagged ATAD5 - cell viability (AID 651634; calls by dose curve; also: nearly all actives have a fitted effect of over 25% in size); conditions: HEK293T ATAD5-luc cells viability, CellTiter-Fluor, 15.5 h
Outline: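 HEK293T cells expressing luciferase-tagged ATAD5 were exposed to compound or DMSO for 15.5 hr at 37C, 5% CO2. Viability was then read as live-cell protease activity by CellTiter-Fluor fluorescence after 30 min at 37C.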

[5] = qHTS assay for small molecule disruptors of the mitochondrial membrane potential - cell viability (AID 720634; calls by dose curve;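 also: human HepG2 liver cancer cells; nearly all actives have a fitted effect of over 20% in size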); conditions: HepG2 viability, ATP luminescence (CellTiter-Glo), 1 h
Outline: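 HepG2 cells seeded overnight at 37 C, then exposed to compound or DMSO for 1 hr at 37 C, 5% CO2. m-MPI dye added, then CellTiter-Glo for 30 min at room temperature; viability read as ATP luminescence.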

[6] = qHTS assay to test for compound auto fluorescence at 590 nm (red) in HepG2 cells (AID 720674); conditions: HepG2 autofluorescence, red 540/590 nm, 1 h
Outline: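 We screened compounds on adherent HepG2 cells, incubating them for an hour at 37 C in 5% CO2 before reading emission at 590 nm under 540 nm excitation; values reflect equivalence to Rose Bengal sodium fluorescence.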

[7] = qHTS assay to test for compound auto fluorescence at 535 nm (green) in HepG2 cells (AID 720675); conditions: green autofluorescence 485/535 nm, 1 h
[8] = qHTS assay to test for compound auto fluorescence at 460 nm (blue) in HEK293 cells (AID 720678); conditions: blue autofluorescence 405/460 nm
Outline: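 Cells were seeded and left to adhere for 4-5 hr at 37C. Compounds were then pin-transferred. After an overnight incubation at 37C under 5% CO2, intrinsic fluorescence at 405/460 nm was measured and referenced to triamterene.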

[9] = qHTS assay to test for compound auto fluorescence at 590 nm (red) in HEK293 cells (AID 720679); conditions: red autofluorescence 540/590 nm
Outline: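 Each well held 2,000 HEK293 cells in medium containing 10% dialyzed FBS. Following 4-5 hr attachment at 37C, 23 nL test compound or DMSO was added; plates sat overnight, and red fluorescence (540/590nm) was recorded.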

[10] = qHTS assay to test for compound auto fluorescence at 535 nm (green) in HEK293 cells (AID 720680); conditions: green autofluorescence 485/535 nm
[11] = qHTS assay to test for compound auto fluorescence at 460 nm (blue) in HEK293 cell free culture (AID 720681); conditions: cell-free medium, autofluorescence 405/460 nm (blue)
Outline: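 Blue fluorescence (Ex 405/Em 460 nm, triamterene-equivalent) was read immediately after pin transfer of compound or DMSO into medium (DMEM, 10% FBS) without cells.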

[12] = qHTS assay to test for compound auto fluorescence at 535 nm (green) in HEK293 cell free culture (AID 720682); conditions: cell-free medium, green autofluorescence 485/535 nm, hits give high values
Outline: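 DMEM + 10% FBS, cell-free; cpd or DMSO pinned in; Ex485/Em535 read; output as fluorescein-equivalent signal.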

[13] = qHTS assay to test for compound auto fluorescence at 590 nm (red) in HEK293 cell free culture (AID 720683); conditions: cell-free medium autofluorescence, Ex540/Em590 red
Outline: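 Red-channel autofluorescence of compounds in culture medium (DMEM, 10% FBS), no cells, measured at 540/590 nm. Rose Bengal sodium is the reference fluorophore for equivalence.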

[14] = qHTS assay to test for compound auto fluorescence at 590 nm (red) in HepG2 cell free culture (AID 720684); conditions: cell-free medium autofluorescence, red 540/590 nm
Outline: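 Plate contents were MEM with 10% FBS plus test compound or DMSO, no cells. Fluorescence was recorded with 540 nm excitation and 590 nm emission.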

[15] = qHTS assay to test for compound auto fluorescence at 460 nm (blue) in HepG2 cell free culture (AID 720685); conditions: Cell-free culture medium, blue autofluorescence 405/460 nm
Outline: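 Compound (23 nL) or DMSO pinned into cell-free MEM with 10% FBS; blue fluorescence read at 405/460 nm excitation/emission, expressed as auto-fluorescence equivalency to triamterene.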

[16] = qHTS assay to test for compound auto fluorescence at 535 nm (green) in HepG2 cell free culture (AID 720686); conditions: Cell-free medium, green autofluorescence 485/535 nm
[17] = qHTS assay to test for compound auto fluorescence at 460 nm (blue) in HepG2 cells (AID 720687); conditions: autofluorescence 405/460 nm, 1 h
Outline: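 Blue-channel autofluorescence (Ex/Em 405/460 nm, triamterene-equivalent) was measured after 1 hr compound exposure at 37 C, 5% CO2. Cells were HepG2, plated overnight at 37 C in MEM plus 10% FBS.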

[18] = target: Glucocorticoid receptor (Homo sapiens) (UniProt P04150); experiment: qHTS assay to identify small molecule agonists of the glucocorticoid receptor (GR) signaling pathway (AID 720691; active = well fitted activation curve with a large enough effect in the signal ratio in the repeat runs, not every such curve was filed as active; the % refers to the signal ratio); conditions: GR-bla HeLa, beta-lactamase reporter ratio, 18 h
[19] = target: Glucocorticoid receptor (Homo sapiens) (UniProt P04150); experiment: qHTS assay to identify small molecule antagonists of the glucocorticoid receptor (GR) signaling pathway (AID 720692; active = well fitted inhibition curve with a large enough effect in the signal ratio in the repeat runs, not every such curve was filed as active; the % refers to the signal ratio); conditions: GR-bla HeLa, beta-lactamase FRET ratio, dexamethasone-stimulated, 18 h; at 58.5 µM (top of the series)
[20] = qHTS assay for identifying genotoxic compounds that show differential cytotoxicity against isogenic chicken DT40 cell lines with known DNA damage response pathways - wild type cell line (AID 743012); conditions: DT40 wild type chicken cells viability, CellTiter-Glo, 40 h; also: nearly all actives have a fitted effect of over 60% in size
Outline: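 Parental DNA repair-proficient DT40 cells, 300 per well, were pre-incubated ~0.5 h at 37 C/5% CO2, pin-dosed with compounds in DMSO, then incubated 40 h. Viability was read as CellTiter-Glo luminescence after 30 min at room temperature.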
% is scaled to controls: 0 for no effect and ±100 for the full control effect.

COP(C)(=O)OC
inactive: activation ([1]; at 73.3 µM (top of the series)) -1.69% | activation ([1]; at 95.1 µM (top of the series)) 1.34% | Potency [2] | activity change, negative = cytotoxicity ([3]; at 83.3 µM (top of the series)) 13% | activity change, negative = cytotoxicity ([3]; at 95.3 µM (top of the series)) -14.3% | activity, negative = cytotoxicity ([4]; at 83.3 µM (top of the series)) -2.04% | activity, negative = cytotoxicity ([4]; at 95.3 µM (top of the series)) 25.1% | activity change, negative = cytotoxicity ([5]; at 83.2 µM (top of the series)) -0.207% | activity change, negative = cytotoxicity ([5]; at 95.3 µM (top of the series)) 4.57% | fluorescence, relative to Rose Bengal ([6]; at 91.3 µM (top of the series)) 0.264% | fluorescence, relative to Rose Bengal ([6]; at 95.7 µM (top of the series)) 0.0978% | fluorescence, % of fluorescein control ([7]; at 91.3 µM (top of the series)) -0.0434% | fluorescence, % of fluorescein control ([7]; at 95.7 µM (top of the series)) 0.0234% | fluorescence, % of triamterene ([8]; at 91.3 µM (top of the series)) 0.0414% | fluorescence, % of triamterene ([8]; at 95.7 µM (top of the series)) 0.106% | fluorescence, % of fluorescent control ([9]; at 91.3 µM (top of the series)) -0.109% | fluorescence, % of fluorescent control ([9]; at 95.7 µM (top of the series)) 0.157% | fluorescence, % of fluorescein ([10]; at 91.3 µM (top of the series)) -0.0158% | fluorescence, % of fluorescein ([10]; at 95.7 µM (top of the series)) 0.0087% | fluorescence, % of fluorescent control ([11]; at 91.3 µM (top of the series)) 0.06% | fluorescence, % of fluorescent control ([11]; at 95.7 µM (top of the series)) -0.269% | activity change ([12]; at 91.3 µM (top of the series)) -0.0041% | activity change ([12]; at 95.7 µM (top of the series)) 0.0851% | fluorescence, % of fluorescent control ([13]; at 91.3 µM (top of the series)) 0.166% | fluorescence, % of fluorescent control ([13]; at 95.7 µM (top of the series)) -0.0734% | fluorescence, % of Rose Bengal ([14]; at 91.3 µM (top of the series)) 0.0911% | fluorescence, % of Rose Bengal ([14]; at 95.7 µM (top of the series)) 0.0396% | fluorescence, % of fluorescent control ([15]; at 91.3 µM (top of the series)) 0.126% | fluorescence, % of fluorescent control ([15]; at 95.7 µM (top of the series)) -0.0471% | fluorescence, % of fluorescein control ([16]; at 91.3 µM (top of the series)) -0.0669% | fluorescence, % of fluorescein control ([16]; at 95.7 µM (top of the series)) 0.0137% | fluorescence, % of fluorescent control ([17]; at 91.3 µM (top of the series)) 0.0483% | fluorescence, % of fluorescent control ([17]; at 95.7 µM (top of the series)) -0.0493% | activation ([18]; at 62.4 µM (top of the series)) 5.82% | activation ([18]; at 79.2 µM (top of the series)) -0.427% | activity change, negative = inhibition [19] 22.4% | activity change, negative = cytotoxicity ([20]; at 68.4 µM (top of the series)) 12.6% | activity change, negative = cytotoxicity ([20]; at 95 µM (top of the series)) -18.5%

Cc1c([N+](=O)[O-])cccc1[N+](=O)[O-]
inactive: activation ([1]; at 73.3 µM (top of the series)) -2.45% and 1.22% | Potency [2] | activity change, negative = cytotoxicity ([3]; at 83.3 µM (top of the series)) 20.1% and -13.4% | activity, negative = cytotoxicity ([4]; at 83.3 µM (top of the series)) 27.8% and 15.3% | activity change, negative = cytotoxicity ([5]; at 83.2 µM (top of the series)) 4.27% and -5.83% | fluorescence, relative to Rose Bengal ([6]; at 91.3 µM (top of the series)) -0.781% and -0.0384% | fluorescence, % of fluorescein control ([7]; at 91.3 µM (top of the series)) -0.0256% and 0.0047% | fluorescence, % of triamterene ([8]; at 91.3 µM (top of the series)) -0.108% and -0.0054% | fluorescence, % of fluorescent control ([9]; at 91.3 µM (top of the series)) 0.0338% and 0.0323% | fluorescence, % of fluorescein ([10]; at 91.3 µM (top of the series)) -0.0533% and 0.0048% | fluorescence, % of fluorescent control ([11]; at 91.3 µM (top of the series)) -0.633% and -0.0383% | activity change ([12]; at 91.3 µM (top of the series)) -0.0513% and -0.0271% | fluorescence, % of fluorescent control ([13]; at 91.3 µM (top of the series)) -0.774% and 0.0055% | fluorescence, % of Rose Bengal ([14]; at 91.3 µM (top of the series)) -0.0613% and 0.164% | fluorescence, % of fluorescent control ([15]; at 91.3 µM (top of the series)) -0.208% and 0.001% | fluorescence, % of fluorescein control ([16]; at 91.3 µM (top of the series)) -0.114% and -0.0171% | fluorescence, % of fluorescent control ([17]; at 91.3 µM (top of the series)) -0.435% and -0.0004% | activation ([18]; at 62.4 µM (top of the series)) -3.03% and 0.785% | activity change, negative = inhibition [19] 2.18% and 0.481% | activity change, negative = cytotoxicity ([20]; at 68.4 µM (top of the series)) 6.25%
